Data set [1] deals with Q46 aggregates. Briefly: RBA saturation binding, Q46 aggregates. The conditions noted are these: read-out: Kd Q46.
The target of data set [2] is beta amyloid plaques (6E10 antibody) (Homo sapiens, UniProt P05067). Put plainly: HR ARG co-registration with 6E10 antibody, human AD brain sections. It counts as binding. The following applies: 10 nM CHDI-180, 10 nM CHDI-626, 0.1 nM PiB, 1 nM T808; tested as the radiolabelled form.
In data set [3] the target is beta amyloid plaques in human AD brain sections (Homo sapiens, UniProt P05067). Briefly: ARG, human post-mortem AD frontal cortex sections. It counts as binding. The following applies: tested as the radiolabelled form.
Data set [4] deals with T1, Exon1-Q46 aggregates (Homo sapiens, UniProt P42858, INS38QQQQQQQQQQQQQQQQQQQQQQQQQ). Briefly: RBA saturation binding, recombinant Exon1-Q46 aggregates. The conditions noted are these: read-out: Kd Exon1-Q46; tritiated compound; mean ± SD; tested as the radiolabelled form.
The target in data set [5] is T1, Exon1-Q46 aggregates. Briefly: RBA competition binding against tritiated 3, Exon1-Q46 aggregates. The conditions noted are these: read-out: IC50 Exon1-Q46, 0.3 nM tritiated 3 as radioligand, 1 µM aggregates, mean ± SD.
The target in data set [6] is Q46 aggregates. Briefly: RBA competition binding against tritiated 3, Q46 aggregates. The following applies: read-out: IC50 Q46, 0.3 nM tritiated 3 as radioligand, 1 µM aggregates, mean ± SD.
The target of data set [7] is phospho-Tau tangles (AT8 antibody) (Homo sapiens, UniProt P10636). Put plainly: HR ARG co-registration with AT8 antibody, human AD brain sections. The following applies: 10 nM CHDI-180, 10 nM CHDI-626, 0.1 nM PiB, 1 nM T808; tested as the radiolabelled form.
Data set [8] concerns beta amyloid/tau aggregates in post-mortem AD patient brain homogenates. Briefly: ADbh RBA competition format. The conditions noted are these: tested as the radiolabelled form.
The test system is the same in data set [9]. Put plainly: ADbh RBA saturation (direct) binding. The conditions noted are these: 100 µg homogenate per well, tested as the radiolabelled form.
The conditions of data set [10]: tested as the radiolabelled form; cited from earlier work.
Data set [11] deals with mHTT aggregates in R6/2 mice brain sections. Put plainly: In vitro ARG, R6/2 mouse brain sections. The conditions noted are these: 4-, 8- and 12-week-old R6/2 mice; tested as the radiolabelled form.
The test system of data set [12] is mHTT aggregates in human HD brain sections. Briefly: ARG, human post-mortem HD frontal cortex sections. The following applies: 1 nM radioligand; gray matter; tested as the radiolabelled form.
Data set [13] is described as follows: ARG, human post-mortem CTRL frontal cortex sections. The conditions noted are these: 1 nM radioligand; gray matter; tested as the radiolabelled form.
The mark [14] stands for this setting: tritiated compound, mean ± SD, tested as the radiolabelled form.
Setting [15] is: tested as the radiolabelled form.

By UniProt entry, the sequences of proteins in these tests, tags left out. Chains listed by the source or under a name are the forms on record and can include a tag or linker. Residues count along the entry.
UniProt P05067, 672-713 limits assumed: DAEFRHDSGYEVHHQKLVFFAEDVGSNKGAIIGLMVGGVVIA
UniProt P42858, 1-87 with tags or gaps with the stated changes limits assumed: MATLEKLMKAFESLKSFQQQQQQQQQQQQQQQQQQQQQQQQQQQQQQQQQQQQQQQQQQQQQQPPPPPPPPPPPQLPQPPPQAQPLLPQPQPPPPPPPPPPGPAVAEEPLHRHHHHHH
UniProt P10636, 623-695 limits assumed: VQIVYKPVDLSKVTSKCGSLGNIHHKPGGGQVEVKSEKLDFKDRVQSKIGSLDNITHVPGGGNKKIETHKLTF

Like-named read-outs stand apart in the source and are kept apart here.

For the molecule `COc1ccc2c(c1)sc1nc(C(=O)Nc3ccc(OC)nc3)cn12`, the Kd (as a rule, the free concentration of one partner at which half of the binding sites on the other are occupied at equilibrium, for simple one-to-one binding) in data set [1] (setting [14]) is 7.8 nM; in data set [4], 5.5 nM; in data set [9] (read-out: Kd, AD brain homogenate), 3 nM. For the same molecule, the “co-registration with 6E10-positive beta amyloid plaques” value in data set [2] is “co-registration with 6E10”. The “specific binding to human AD brain by ARG” value in data set [3] (4 at 0.3 nM) is given as “specific binding to human AD brain was confirmed”. Further, the IC50 – broadly, the point on the concentration scale where inhibition reaches its midpoint – in data set [5] (setting [15]) is 0.4 nM; in data set [6] (setting [15]) it was 0.7 nM; in [8] (read-out: IC50, AD brain homogenate, against 0.5 nM radiolabeled 4), 2.5 nM. Further, the “co-registration with AT8-positive phospho-Tau immunoreactivity” value in [7] was “not AT8”. Also, the “displacement of 4 at 0.1 µM” value in [8] (radioligand 4, compound 0.1 µM) is “fully displace”. The “Bmax, AD brain homogenate” value in data set [9] amounted to 3.7 pmol/mg.
Consider `COc1ccc2c(c1)sc1nc(C(=O)Nc3cccnc3)cn12`, for which the Kd amounted to 8.7 nM in [1] (setting [14]) and 5.2 nM in data set [4]. Moreover, the IC50 came out at 5.8 nM in data set [5] (setting [15]) and 4.7 nM in data set [6] (setting [15]).
As for `COc1ccc2cc(C(C)=C(C#N)C#N)ccc2c1`, in data set [1] (higher protein concentrations (10–30 µM) applied), the Kd was found to be 140 nM. The IC50 in data set [5] is 9.9 nM; in [6] it was 10.3 nM.
Consider `COc1ccc(COc2ccc3oc(-c4cnccn4)nc3c2)nc1`, for which the Kd in data set [1] (setting [14]) was determined as 4.7 nM; in [4], 2.5 nM. Further, the figures for the IC50 in data set [5] (setting [15]) and in data set [6] (setting [15]) were 1.2 nM and 1.8 nM, respectively.
As to `COc1ccc(NC(=O)c2ccn3c(n2)nc2ccccc23)cn1`, the “plasma, microsomal, and hepatocyte stability” value in data set [10] is listed as “acceptable”. In addition, the Kd in [1] (setting [14]) is 5.8 nM; in data set [4], 4.5 nM. Besides, in [11], the “specific binding to STR, CTX and HPC with age” value is reported as “age-dependent increase in specific binding”. In addition, the “co-registration with 6E10-positive beta amyloid plaques” value in data set [2] is “no co-registration”. Moreover, the “binding to frontal cortical sections from HD donors” value in [12] is on record as 2.5 ± 1.0 fmol/mg tissue. Further, the “binding in AD post-mortem brain tissues” value in data set [3] (1 nM radioligand) worked out at 0.8 ± 0.6 fmol/mg. The “binding to frontal cortical sections, CTRL tissue” value in data set [13] was determined as 0.5 ± 0.7 fmol/mg tissue. Further, the IC50 stood at 2.9 nM in data set [5] (setting [15]) and 3.6 nM in data set [6] (setting [15]). For the same molecule, the “co-registration with AT8-positive phospho-Tau immunoreactivity” value in [7] was “no co-registration”.

The record behind these values is paper PMC8429736, “Pharmacological characterization of mutant huntingtin aggregate-directed PET imaging tracer candidates” (Scientific Reports, 2021).
